This note sets out measurements from PubChem BioAssay AID1508602 (The Scripps Research Institute Molecular Screening Center, 2020).

Sequences of proteins named here, by UniProt entry; tags and fusion partners are left off. A change or cut given only in a name is not applied to a line headed by its entry.
UniProt Q8TDV0: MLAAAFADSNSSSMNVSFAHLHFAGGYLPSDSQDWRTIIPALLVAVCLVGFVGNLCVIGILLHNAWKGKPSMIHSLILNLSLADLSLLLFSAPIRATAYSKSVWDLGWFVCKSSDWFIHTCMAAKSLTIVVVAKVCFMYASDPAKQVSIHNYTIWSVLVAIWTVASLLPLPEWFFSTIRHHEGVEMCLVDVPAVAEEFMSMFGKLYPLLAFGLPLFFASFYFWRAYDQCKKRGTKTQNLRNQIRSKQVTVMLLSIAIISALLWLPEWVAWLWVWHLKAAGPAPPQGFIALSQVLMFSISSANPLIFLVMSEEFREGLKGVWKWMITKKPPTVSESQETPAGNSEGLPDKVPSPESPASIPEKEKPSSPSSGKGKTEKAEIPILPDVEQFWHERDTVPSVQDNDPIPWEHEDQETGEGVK

This is a selection; strong and weak results do not stand in their true shares. Active and inactive are the calls of the source. No stated cut-off is given here; in the data, active means activation above about 4.9%; inactive means the rest.

This assay addresses G-protein coupled receptor 151 (Homo sapiens) (UniProt Q8TDV0). The assay is described as follows: activators of human GPR151, primary screen, cell-based, PathHunter beta-arrestin, luminescence (AID 1508602).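 Further: 0% = median of compound wells and 100% = cells with positive control.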 The conditions noted are these: PathHunter beta-arrestin GPR151 cells, at 11.2 µM, stronger effect = higher value.
Consider `O=C(Nc1nnc(-c2cccc([N+](=O)[O-])c2)s1)c1ccc([N+](=O)[O-])cc1[N+](=O)[O-]`, for which the activation was inactive: -2.14%.

For `Cc1cc(=O)[nH]c(N[N+](=O)[O-])n1`, the activation was inactive: -1.03%.

On to `COc1ccc(C)cc1NC(=O)N(Cc1ccco1)C1CCN(CCc2ccccn2)CC1`, for which the activation was inactive: 0.267%. As for `CCOP(=S)(OCC)SCC(=O)NC(C)C(=O)NC` (stereo not drawn), the activation is inactive: -0.0623%. As to `CC(C)COP(=O)(Nc1cccc(F)c1)OCC(C)C`, the activation is inactive: -0.751%.

Take `CC1CN(c2ccc([N+](=O)[O-])cc2[N+](=O)[O-])CCN1c1ccc([N+](=O)[O-])cc1[N+](=O)[O-]` (stereo not drawn): the activation was inactive: -0.457%. Turning to `CC(C)OP(=O)(OC(C)C)C(=O)c1ccccc1`, the activation was inactive: 0.539%. As for `c1ccc2nc(-c3nc4ccccc4[nH]3)ccc2c1`, the activation was inactive: -8.85%. Take `BrCC1CN=C(Nc2ccccc2Br)S1` (stereo not drawn): the activation is inactive: -0.562%.

For the compound `O=C(COC(=O)C(O)(c1ccccc1)c1ccccc1)NCC(F)(F)F`, the activation is inactive: 1.32%.

For the compound `O=[N+]([O-])c1ccc(C(O)C(CO)Nc2ccc([N+](=O)[O-])cc2[N+](=O)[O-])cc1` (stereo not drawn), the activation was inactive: 0.693%. For the compound `O=[N+]([O-])c1cc([N+](=O)[O-])c(Nc2ccccc2)c([N+](=O)[O-])n1`, the activation is inactive: 0.178%. `O=[N+]([O-])c1ccc2no[n+]([O-])c2c1`: the activation was inactive: -0.413%.

As to `O=C(NNC(=O)c1ccncc1)NP1Oc2ccccc2O1`, the activation was inactive: 0.825%.

Turning to `Nc1nonc1OCCOc1nonc1N`, the activation is inactive: -1.44%. To `CCOP(=S)(OCC)SCC(=O)NC(C)C(=O)O` (stereo not drawn) belongs inactive: 3.68%. For `CCCOc1ccc(S(=O)(=O)N(CCCl)CCCl)cc1`, the activation is inactive: 1.65%.

On to `CCN(CCCl)c1ccc(C=C(C#N)C#N)c(C)c1`, for which the activation is inactive: -1.15%. As to `COP1(=S)N=C2c3ccccc3CN2c2cc(N(C)C)ccc21` (stereo not drawn), the activation was inactive: -0.516%.

On to `CC(C)NC(=O)NP(=O)(Oc1ccccc1)Oc1ccccc1`, for which the activation is inactive: -0.273%. For `COC(=O)N(c1ccc(OC)cc1)P1(=S)OCC(C)O1` (stereo not drawn), the activation is inactive: -1.03%. With `CN(C)CCCN(C)Cc1cc2ccccc2o1`, the activation was inactive: 1.76%. On to `CCOP(=O)(OCC)C(=O)c1ccc(OC)cc1`, for which the activation was inactive: -1.71%. As for `CC(C)OP(=O)(OC(C)C)C(=O)c1ccc(F)cc1`, the activation was inactive: -0.0099%. Turning to `O=[N+]([O-])c1cc([N+](=O)[O-])c2[nH]ncc2c1`, the activation was inactive: -0.256%. To `O=C(Cn1cnc([N+](=O)[O-])n1)NCCO[N+](=O)[O-]` belongs inactive: -0.276%. For `CC(C)OP(=O)(NC(C)(C)C)C(Cl)Cl` (stereo not drawn), the activation was inactive: -0.27%. To `O=[N+]([O-])c1ccc(/C=C/C=N/Nc2ccc([N+](=O)[O-])cc2[N+](=O)[O-])cc1` belongs inactive: 0.843%; to `O=C(O)Cc1ccc(N(CCCl)CCCl)cc1`, inactive: -0.294%.

In the case of `O=C(c1cccnc1)N(Cc1ccco1)C1CCN(CCc2ccc(Cl)cc2)CC1`, the activation was inactive: 0.791%. As to `O=P1(Nc2nc(-c3ccccc3)cs2)C=C(c2ccccc2)OC(c2ccccc2)=C1`, the activation is inactive: -0.821%. With `CC(C)COP(=O)(Nc1ccc(Br)cc1)OCC(C)C`, the activation was inactive: 1.24%.

On to `CCCCOP(=S)(CC(=O)N(CC)CC)OCCCC`, for which the activation was inactive: 0.28%. For the compound `CC(C)OP(=O)(OC(C)C)C(=O)c1ccccc1Cl`, the activation is inactive: -1.31%. On to `Cc1sc2nc3n(c(=O)c2c1C)CC(CI)S3` (stereo not drawn), for which the activation is inactive: 2.84%. Turning to `Cc1cc(SC(NC=O)C(Cl)(Cl)Cl)ncn1` (stereo not drawn), the activation is inactive: 0.437%. To `O=C(CF)NC(Sc1ccccc1)C(Cl)(Cl)Cl` (stereo not drawn) belongs inactive: -0.197%. In the case of `CCN1C(=O)N(c2ccccc2)P(=S)(OC)c2cc3c(cc21)OCCO3` (stereo not drawn), the activation is inactive: 1.61%.

Take `CC(C)OP(=O)(Nc1nc2ccccc2[nH]1)OC(C)C`: the activation was inactive: 0.127%. As to `O=C(Cc1ccc(F)cc1)N(Cc1ccco1)C1CCN(CCc2cccs2)CC1`, the activation was inactive: 2.26%. As for `O=[N+]([O-])c1cccc(Nc2ccc([N+](=O)[O-])cc2[N+](=O)[O-])c1`, the activation is inactive: -0.177%.

For the compound `CC(C)(C)C(=O)CSc1nc2ccccc2[nH]1`, the activation was inactive: -1.71%.

Take `O=[N+]([O-])c1ccc(-c2nnc(SCCCl)o2)cc1`: the activation was inactive: -0.765%. Take `CCN(CC)C(=O)NP(=O)(Oc1ccccc1)Oc1ccccc1`: the activation is inactive: -1.45%.

With `Cc1cc(NP(=O)(Oc2ccccc2)Oc2ccccc2)no1`, the activation is inactive: 0.585%. On to `Nc1c([N+](=O)[O-])cc([N+](=O)[O-])c(Nc2ccc(S(N)(=O)=O)cc2)c1[N+](=O)[O-]`, for which the activation was inactive: 0.171%.

As to `O=C(Cc1ccc(F)cc1)N(Cc1cccnc1)C1CCN(CCc2ccccn2)CC1`, the activation was inactive: 1.2%. `COc1ccc(CCN2CCC(N(Cc3cccnc3)C(=O)NC(C)C)CC2)cc1`: the activation was inactive: 0.419%. As for `O=C(COC(=O)c1ccc([N+](=O)[O-])cc1[N+](=O)[O-])c1ccc([N+](=O)[O-])cc1`, the figure is inactive: 0.721%; as for `COc1cc(NC(=O)COC(=O)C(O)(c2ccccc2)c2ccccc2)cc(OC)c1`, inactive: 2.54%. With `Cc1cc(NP(=O)(/C=C(\Cl)c2ccccc2)/C=C(\Cl)c2ccccc2)n[nH]1`, the activation is inactive: 2.08%. As for `COc1ccc(NC(=O)c2cc([N+](=O)[O-])cc([N+](=O)[O-])c2)c([N+](=O)[O-])c1`, the activation was inactive: -0.787%.

Regarding `O=C(Nc1ccncc1[N+](=O)[O-])c1ccc([N+](=O)[O-])cc1[N+](=O)[O-]`, the activation was inactive: 2.04%. `O=C(c1ccco1)N(Cc1cccnc1)C1CCN(CCc2ccc(Cl)cc2)CC1`: the activation is inactive: 2.42%.

On to `CCc1cccc(NC(=O)Oc2c([N+](=O)[O-])cc([N+](=O)[O-])cc2[N+](=O)[O-])c1`, for which the activation is inactive: 1.91%. To `CCCCC(NC(=O)OC(C)(C)C)C(=O)O` (stereo not drawn) belongs inactive: -0.0614%. To `O=C(Nc1ccc(Br)cc1[N+](=O)[O-])c1cc([N+](=O)[O-])cc([N+](=O)[O-])c1` belongs inactive: 0.299%; to `COC(=O)c1cc([N+](=O)[O-])c(Nc2ccc([N+](=O)[O-])cc2Br)c([N+](=O)[O-])c1`, inactive: -0.556%.
